PMC7723054
The list shows a part of the results.

T1: LIN28A (human?, UniProt Q9H9Z2 1-209)
T1 sequence: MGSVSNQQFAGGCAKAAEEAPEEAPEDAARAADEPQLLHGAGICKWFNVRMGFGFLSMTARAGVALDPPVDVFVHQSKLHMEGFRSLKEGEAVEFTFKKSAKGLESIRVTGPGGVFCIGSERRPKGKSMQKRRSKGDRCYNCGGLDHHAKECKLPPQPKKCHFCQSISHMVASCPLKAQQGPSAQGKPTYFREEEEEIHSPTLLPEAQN

T2: CIRBP (Homo sapiens, UniProt Q14011 1-172)
T2 sequence: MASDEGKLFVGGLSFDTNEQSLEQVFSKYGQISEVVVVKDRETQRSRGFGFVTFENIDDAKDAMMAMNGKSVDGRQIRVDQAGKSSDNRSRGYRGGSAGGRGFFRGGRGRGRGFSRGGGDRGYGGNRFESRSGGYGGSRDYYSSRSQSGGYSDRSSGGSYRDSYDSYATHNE

T3: DHX36 (Homo sapiens, UniProt Q9H2U1 1-1008)
T3 sequence: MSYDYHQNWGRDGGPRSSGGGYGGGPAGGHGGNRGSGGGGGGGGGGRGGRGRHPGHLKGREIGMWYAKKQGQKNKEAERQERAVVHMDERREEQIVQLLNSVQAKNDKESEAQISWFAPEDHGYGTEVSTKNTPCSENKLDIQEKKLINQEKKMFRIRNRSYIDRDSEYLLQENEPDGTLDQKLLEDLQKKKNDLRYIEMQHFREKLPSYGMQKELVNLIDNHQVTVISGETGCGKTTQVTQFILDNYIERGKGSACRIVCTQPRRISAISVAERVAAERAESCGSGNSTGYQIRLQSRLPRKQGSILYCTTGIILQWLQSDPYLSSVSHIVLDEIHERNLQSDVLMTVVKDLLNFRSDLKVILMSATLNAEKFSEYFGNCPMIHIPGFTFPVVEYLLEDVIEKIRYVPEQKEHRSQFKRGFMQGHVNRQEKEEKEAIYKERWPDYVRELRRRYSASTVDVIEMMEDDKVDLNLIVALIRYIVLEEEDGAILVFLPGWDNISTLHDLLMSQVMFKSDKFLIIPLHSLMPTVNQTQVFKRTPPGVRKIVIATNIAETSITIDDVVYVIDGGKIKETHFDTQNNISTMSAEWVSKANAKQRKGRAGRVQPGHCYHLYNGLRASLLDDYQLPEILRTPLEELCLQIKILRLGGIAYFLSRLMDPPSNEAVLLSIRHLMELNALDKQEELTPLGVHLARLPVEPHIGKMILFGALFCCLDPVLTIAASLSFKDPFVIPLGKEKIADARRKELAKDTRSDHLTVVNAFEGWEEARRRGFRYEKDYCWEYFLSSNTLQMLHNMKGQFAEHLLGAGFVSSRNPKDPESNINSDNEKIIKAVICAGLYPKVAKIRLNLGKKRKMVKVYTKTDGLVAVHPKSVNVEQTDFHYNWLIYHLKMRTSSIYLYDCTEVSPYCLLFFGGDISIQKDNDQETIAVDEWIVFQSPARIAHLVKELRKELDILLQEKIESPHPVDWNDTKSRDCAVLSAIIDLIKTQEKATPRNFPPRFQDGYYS

B1: hsa-mir-5700 (structured_RNA)
RNA: GGGACCGUCGCCUCCGAUCUCUAUAUGGGGUGUACGAAGUUUCAGCAAGGCCCUUGGGCACCCCAGGCCUUGCUGAAGCUUCGUGCAC
B2: hsa-mir-3622a (structured_RNA)
RNA: GGGACUAUGCGUUUGACCCAACUAGGUAGGUGUACGAAGUUUCAGCGUGAGGCAGGGAGCUGAGCUCACGCUGAAGCUUCGUGCAC
B3: hsa-mir-141 (structured_RNA)
RNA: GGGACACUCGGAGAGAACCCUCAGGGAUGGUGUACGAAGUUUCAGCGUUGGAUGGUCUAAUUGUGAAGCUCCUAACGCUGAAGCUUCGUGCAC
B4: hsa-mir-1273g (structured_RNA)
RNA: GGGAAAAGGUGUCACGAGAGAUAUGUUUGGUGUACGAAGUUUCAGCUAAGUUGUGAUCAUACCAGCUGAAGCUUCGUGCAC
B5: hsa-mir-6812 (structured_RNA)
RNA: GGGAAAGCAUUGUUAGACAAAGGACCCUGGUGUACGAAGUUUCAGCGCAGCCAGUCCUGUCUCACCGCGCUGAAGCUUCGUGCAC
B6: hsa-mir-548av (structured_RNA)
RNA: GGGAACGAAGAAGUACGCAAUAAAGCCAGGUGUACGAAGUUUCAGCAUUUGCCAUCACCUUUACCUUUAAUGGCAAAAGCUGAAGCUUCGUGCAC
B7: hsa-mir-8064 (structured_RNA)
RNA: GGGACGAUACGAUAUCAGCGAUUAAGCAGGUGUACGAAGUUUCAGCGGACAUCCUUCCAUAGUAAAUAAGCGGUGCCGCUGAAGCUUCGUGCAC
B8: hsa-mir-4428 (structured_RNA)
RNA: GGGCCCCAAACGGAGCUAAUAGACGCUAGGUGUACGAAGUUUCAGCCUUACUGUACACGUGGCUGGCAAGGCUGAAGCUUCGUGCAC
B9: hsa-mir-6754 (structured_RNA)
RNA: GGGAGGAUUGGAGCUCGUACCCUCACUCGGUGUACGAAGUUUCAGCUGGAGGAGUCUGGUGGCCUGUUCUCUUGCUGAAGCUUCGUGCAC
B10: hsa-mir-25 (structured_RNA)
RNA: GGGAGCGAGACUGACGACUCUUCCUGAUGGUGUACGAAGUUUCAGCAUUGCUGGACGCUGCCCUGGGCAUGCUGAAGCUUCGUGCAC
B11: hsa-mir-5739 (structured_RNA)
RNA: GGGACUGGGCCGUAAAACACCUGAGUAUGGUGUACGAAGUUUCAGCCCAAGGUUGUGCUUUUAGGAAAUGUUGGCUGUCCUGCGGGCUGAAGCUUCGUGCAC
B12: G4_(UGGGGU)6 (structured_RNA)
RNA: GGGAGAGGAAGCCUACAAAUAGCACGAAGGUGUACGAAGUUUCAGCUGGGGUUGGGGUUGGGGUUGGGGUUGGGGUUGGGGUGCUGAAGCUUCGUGCAC
B13: hsa-mir-6857 (structured_RNA)
RNA: GGGACAGGAUUAACCAGCAAAGCCGAUUGGUGUACGAAGUUUCAGCGCCAGUGUUCAAGGGCCCCUCCUCUAGUACUCCCUGUUUGUGUUCUGCCACUGAGCUGAAGCUUCGUGCAC
B14: hsa-mir-383 (structured_RNA)
RNA: GGGAAGAUGUGAACCAGGUGUCGAUUACGGUGUACGAAGUUUCAGCUUGUGGCUUUGGGUGGAUAUUAAUCAGCCACAGGCUGAAGCUUCGUGCAC
B15: hsa-mir-548f-5 (structured_RNA)
RNA: GGGAAGUCUUAGGAUUGGGCGACACUAUGGUGUACGAAGUUUCAGCUUUUUCCAUUGUAAGUAAUGGGAAAAGCUGAAGCUUCGUGCAC
B16: hsa-mir-517a (structured_RNA)
RNA: GGGAACGGAGAUAAGCGACGAAUAGCACGGUGUACGAAGUUUCAGCCUGUCUGUUGUAUAAAAGAAAAGAUCGGCUGAAGCUUCGUGCAC
B17: hsa-mir-5581 (structured_RNA)
RNA: GGGAGAAAGCAGGCCGGUGAGUAUACGAGGUGUACGAAGUUUCAGCGGAGACCCUAUACAUACCUGUUUCCGCUGAAGCUUCGUGCAC
B18: hsa-mir-892c (structured_RNA)
RNA: GGGAACUUGAAAGUGACUACUCAAGCGCGGUGUACGAAGUUUCAGCAGUCACUUAGAUUACAUGUCACUGCUGAAGCUUCGUGCAC
B19: hsa-mir-6739 (structured_RNA)
RNA: GGGAACAAGACGCACUGGUAGCCCACAAGGUGUACGAAGUUUCAGCCAAGUAAAAGGAAUUUUCAUUUUCCAGCCCCUAAUUGGCUGAAGCUUCGUGCAC
B20: hsa-mir-6769a (structured_RNA)
RNA: GGGAAACCACUCGGCGAGCAAAGUUGUUGGUGUACGAAGUUUCAGCCCCUCAUAUGGCAGUUGGCGAGGGCCCAGUGAGGCUGAAGCUUCGUGCAC
B21: hsa-mir-105-1 (structured_RNA)
RNA: GGGAAUCUCAGAGCAUACUUGUGCGACGGGUGUACGAAGUUUCAGCCUGUGGUGGCUGCUCAUGCACCACGGGCUGAAGCUUCGUGCAC
B22: hsa-mir-4752 (structured_RNA)
RNA: GGGAAAAGUGAUGACCGACUGUUACUUGGGUGUACGAAGUUUCAGCUGCUUCCACAUAGCAGCAGCUGAAGCUUCGUGCAC
B23: hsa-mir-608 (structured_RNA)
RNA: GGGAACCACUCCUGAAACCCGGGACAUAGGUGUACGAAGUUUCAGCCCGUUUAAAAAGGCAUCUCCAAGGCUGAAGCUUCGUGCAC

Tests used:
Assay in all cases: FOREST: bead pull-down of RNA structure library v1, barcode microarray; U1A/LIN28A: 20 mM HEPES pH 7.5, 80 mM KCl, 20 mM NaCl, 10% glycerol, 2 mM DTT, 0.1 ug/uL BSA, 4 C; BG4/CIRBP/DHX36: 10 mM Tris-HCl pH 7.5, 100 mM KCl (or LiCl),; high values mean tight binding
U1A = U1A (Homo sapiens, UniProt P09012)
LIN28A = molecular target: T1, LIN28A
CIRBP = molecular target: T2, CIRBP
DHX36 = molecular target: T3, DHX36

Binder	binding signal (U1A)	binding signal (LIN28A)	binding signal (CIRBP)	binding signal (DHX36)
B1	0.375 z-score	-1.6 z-score	-1.02 z-score	0.212 z-score
B2	0.359 z-score	-0.698 z-score	-0.735 z-score	0.298 z-score
B3	0.372 z-score	0.077 z-score	0.209 z-score	0.333 z-score
B4	0.356 z-score	1.52 z-score	0.824 z-score	-0.327 z-score
B5	0.382 z-score	-0.295 z-score	0.19 z-score	-0.313 z-score
B6	0.366 z-score	-0.0998 z-score	1.3 z-score	0.339 z-score
B7	0.356 z-score	-0.391 z-score	0.217 z-score	-0.249 z-score
B8	0.366 z-score	-1.45 z-score	-0.813 z-score	-1.26 z-score
B9	0.377 z-score	-1.02 z-score	-1.17 z-score	0.156 z-score
B10	0.378 z-score	-0.121 z-score	-0.518 z-score	-0.152 z-score
B11	0.377 z-score	0.472 z-score	-0.841 z-score	-0.0239 z-score
B12	1.92 z-score	1.4 z-score	4.5 z-score	7.76 z-score
B13	1.98 z-score	0.779 z-score	-1.16 z-score	0.533 z-score
B14	0.362 z-score	1.59 z-score	1.71 z-score	0.837 z-score
B15	0.379 z-score	-1.24 z-score	-0.204 z-score	0.0862 z-score
B16	0.381 z-score	2.02 z-score	0.807 z-score	0.674 z-score
B17	0.357 z-score	-0.285 z-score	-0.628 z-score	-0.456 z-score
B18	0.369 z-score	0.882 z-score	0.938 z-score	-0.208 z-score
B19	0.382 z-score	-0.226 z-score	0.863 z-score	-0.0903 z-score
B20	0.379 z-score	0.547 z-score	0.109 z-score	-0.268 z-score
B21	0.371 z-score	0.142 z-score	-0.379 z-score	-0.838 z-score
B22	0.362 z-score	-0.749 z-score	0.5 z-score	0.402 z-score
B23	0.358 z-score	1.33 z-score	1.46 z-score	-0.192 z-score
